Assay results: patent publication US12583836B2 (Anaxis Pharma Pty Ltd, priority 2020, dated 2026)

Chains of the proteins cited; added tags and fusions are not shown. Lines headed by an entry give the natural chain unless they say otherwise; changes in a name come on top.
UniProt Q9Y572: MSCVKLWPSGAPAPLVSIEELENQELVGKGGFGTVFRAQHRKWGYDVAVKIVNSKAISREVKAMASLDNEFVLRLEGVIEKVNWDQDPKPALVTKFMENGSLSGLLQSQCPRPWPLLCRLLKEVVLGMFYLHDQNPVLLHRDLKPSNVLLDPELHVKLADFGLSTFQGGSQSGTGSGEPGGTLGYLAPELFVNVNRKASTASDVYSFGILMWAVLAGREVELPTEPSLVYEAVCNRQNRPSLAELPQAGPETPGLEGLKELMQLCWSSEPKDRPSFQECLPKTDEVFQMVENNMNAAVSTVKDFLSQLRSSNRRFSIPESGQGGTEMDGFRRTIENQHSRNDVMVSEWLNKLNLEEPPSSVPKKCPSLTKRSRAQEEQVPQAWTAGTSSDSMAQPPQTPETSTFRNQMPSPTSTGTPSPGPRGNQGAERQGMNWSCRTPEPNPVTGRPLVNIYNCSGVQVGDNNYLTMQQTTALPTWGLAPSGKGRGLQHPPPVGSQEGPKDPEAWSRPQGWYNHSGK

What was measured:
RIP3 = biological target: T1, RIP3 (Homo sapiens, UniProt Q9Y572); test: KINOMEscan binding assay, RIP3; conditions: equilibrium dissociation constant, class symbols
T1 construct: purchased DiscoverX (KINOMEscan service); host or cells: E. coli BL21-derived (T7 phage) or HEK293

MLKL (full length) = biological target: T2, MLKL (full length) (Homo sapiens, UniProt Q8NB16); test: KINOMEscan binding assay, MLKL; conditions: equilibrium dissociation constant, class symbols
T2 construct: purchased DiscoverX (KINOMEscan service); host or cells: E. coli BL21-derived (T7 phage) or HEK293
T2 sequence (Q8NB16 1-471): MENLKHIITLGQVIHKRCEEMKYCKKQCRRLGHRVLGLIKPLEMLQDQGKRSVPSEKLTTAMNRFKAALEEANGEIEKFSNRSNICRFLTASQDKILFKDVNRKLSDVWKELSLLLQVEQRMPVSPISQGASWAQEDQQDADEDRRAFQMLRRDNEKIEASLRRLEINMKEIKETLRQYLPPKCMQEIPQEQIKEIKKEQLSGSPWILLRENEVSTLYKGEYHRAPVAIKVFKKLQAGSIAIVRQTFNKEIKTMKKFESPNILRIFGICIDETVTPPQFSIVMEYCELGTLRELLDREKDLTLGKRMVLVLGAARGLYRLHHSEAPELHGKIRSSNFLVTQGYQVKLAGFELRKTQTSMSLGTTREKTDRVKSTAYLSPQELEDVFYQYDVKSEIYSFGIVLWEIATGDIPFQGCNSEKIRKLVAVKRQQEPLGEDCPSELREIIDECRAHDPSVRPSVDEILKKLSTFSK

Compound | Kd (RIP3) [µM] | Kd (MLKL (full length)) [µM]
NC(=O)c1c(-c2ccc(NS(=O)(=O)c3cccc(C(F)(F)F)c3)cc2)n[nH]c1Nc1cnccn1 [Compound 73, 5-(pyrazin-2-ylamino)-3-(4-((3-(trifluoromethyl)phenyl)sulfonamido)phenyl)-1H-pyrazole-4-carboxamide] | > 30 | –
NC(=O)c1c(-c2ccc(NS(=O)(=O)CC(F)(F)F)c(OCc3ccccn3)c2)n[nH]c1Nc1cnccn1 [Compound 227, 5-[(pyrazin-2-yl)amino]-3-{3-[(pyridin-2-yl)methoxy]-4-(2,2,2-trifluoroethanesulfonamido)phenyl}-1H-pyrazole-4-carboxamide] | > 30 | –
N#CCS(=O)(=O)Nc1ccc(-c2n[nH]c(Nc3cccc(C(F)(F)F)n3)c2C(N)=O)cc1 [Compound 29, 3-(4-((cyanomethyl)sulfonamido)phenyl)-5-((6-(trifluoromethyl)pyridin-2-yl)amino)-1H-pyrazole-4-carboxamide] | > 30 | –
NC(=O)c1c(-c2ccc(NS(=O)(=O)CC(F)(F)F)c(OCc3ccc(F)cc3)c2)n[nH]c1Nc1ccccn1 [Compound 239] | > 30 | –
CCS(=O)(=O)Nc1ccc(-c2n[nH]c(Nc3cncc(C(F)(F)F)n3)c2C(N)=O)cc1 [Compound 44, 3-(4-(ethylsulfonamido)phenyl)-5-((6-(trifluoromethyl)pyrazin-2-yl)amino)-1H-pyrazole-4-carboxamide] | > 30 | –
CCC(Oc1cc(-c2n[nH]c(Nc3cnccn3)c2C(N)=O)ccc1NS(=O)(=O)C(F)F)c1ccc(F)cc1 (racemic) [Compound 233, 3-[4-(difluoromethanesulfonamido)-3-[1-(4-fluorophenyl)propoxy]phenyl]-5-[(pyrazin-2-yl)amino]-1H-pyrazole-4-carboxamide] | > 30 | –
CCS(=O)(=O)Nc1ccc(-c2n[nH]c(Nc3cccc(OC)n3)c2C(N)=O)cc1 [Compound 107, 3-(4-(ethylsulfonamido)phenyl)-5-((6-methoxypyridin-2-yl)amino)-1H-pyrazole-4-carboxamide] | 1 to 30 | –
NC(=O)c1c(-c2ccc(NS(=O)(=O)C(F)F)cc2)n[nH]c1Nc1ccccn1 [Compound 48, 3-(4-((difluoromethyl)sulfonamido)phenyl)-5-(pyridin-2-ylamino)-1H-pyrazole-4-carboxamide] | > 30 | –
NC(=O)c1c(-c2ccc(NS(=O)(=O)C(F)F)c(OCc3ccc(F)cc3)c2)n[nH]c1Nc1cccc(C(F)(F)F)n1 [Compound 217] | > 30 | –
CCS(=O)(=O)Nc1ccc(-c2n[nH]c(Nc3ccccn3)c2C(N)=O)cc1OCc1cccc(Cl)c1 [Compound 38, 3-(3-((3-chlorobenzyl)oxy)-4-(ethylsulfonamido)phenyl)-5-(pyridin-2-ylamino)-1H-pyrazole-4-carboxamide] | > 30 | –
CCS(=O)(=O)Nc1ccc(-c2n[nH]c(Nc3ccnc(OC)n3)c2C(N)=O)cc1 [Compound 123, 3-(4-(ethylsulfonamido)phenyl)-5-((2-methoxypyrimidin-4-yl)amino)-1H-pyrazole-4-carboxamide] | > 30 | –
CCS(=O)(=O)Nc1ccc(-c2n[nH]c(Nc3cccc(OC)n3)c2C(N)=O)cc1OCc1ccc(F)cc1 [Compound 11, 3-(4-(ethylsulfonamido)-3-((4-fluorobenzyl)oxy)phenyl) 5-((6-methoxypyridin-2-yl)amino)-1H-pyrazole-4 carboxamide] | > 30 | –
CCS(=O)(=O)Nc1ccc(-c2n[nH]c(NC)c2C(N)=O)cc1 [Compound 119, 3-(4-(ethylsulfonamido)phenyl)-5-(methylamino)-1H-pyrazole-4-carboxamide] | > 30 | –
CCS(=O)(=O)Nc1ccc(-c2n[nH]c(Nc3cccnn3)c2C(N)=O)cc1 [Compound 64, 3-(4-ethanesulfonamidophenyl)-5-[(pyridazin-3-yl)amino]-1H-pyrazole-4-carboxamide] | > 30 | –
CCS(=O)(=O)Nc1ccc(-c2n[nH]c(Nc3ccc4ccccc4c3)c2C(N)=O)cc1 [Compound 86, 3-(4-(ethylsulfonamido)phenyl)-5-(naphthalen-2-ylamino)-1H-pyrazole-4-carboxamide] | 1 to 30 | –
CN(C)CCS(=O)(=O)Nc1ccc(-c2n[nH]c(Nc3cccc(C(F)(F)F)n3)c2C(N)=O)cc1 [Compound 51, 3-(4-((2-(dimethylamino)ethyl)sulfonamido)phenyl)-5-((6-(trifluoromethyl)pyridin-2-yl)amino)-1H-pyrazole-4-carboxamide] | > 30 | –

Compound | Kd (RIP3) [µM] | Kd (MLKL (full length)) [µM]
CCS(=O)(=O)Nc1ccc(-c2n[nH]c(Nc3cc(C)ncc3F)c2C(N)=O)cc1 [Compound 111, 3-(4-(ethylsulfonamido)phenyl)-5-((5-fluoro-2-methylpyridin-4-yl)amino)-1H-pyrazole-4-carboxamide] | > 30 | –
CCS(=O)(=O)Nc1ccc(-c2n[nH]c(Nc3cnccn3)c2C(N)=O)cc1O[C@@H](C)c1ccccn1 [Compound 230, 3-{4-ethanesulfonamido-3-[(1S)-1-(pyridin-2-yl)ethoxy]phenyl}-5-[(pyrazin-2-yl)amino]-1H-pyrazole-4-carboxamide] | > 30 | –
NC(=O)c1c(-c2ccc(NS(=O)(=O)CC(F)(F)F)c(OCc3ccc(F)cc3)c2)n[nH]c1Nc1ccc(C(F)(F)F)nc1 [Compound 176, 3-(3-((4-fluorobenzyl)oxy)-4-((2,2,2-trifluoroethyl)sulfonamido)phenyl)-5-((6-(trifluoromethyl)pyridine-3-yl)amino)-1H-pyrazole-4-carboxamide] | > 30 | –
NC(=O)c1c(-c2ccc(NS(=O)(=O)C(F)F)cc2)n[nH]c1Nc1ccc(C(F)(F)F)cn1 [Compound 145, 3-(4-((difluoromethyl)sulfonamido)phenyl)-5-((5-(trifluoromethyl)pyridine-2-yl)amino)-1H-pyrazole-4-carboxamide] | – | < 0.01
CCS(=O)(=O)Nc1ccc(-c2n[nH]c(Nc3cnccn3)c2C(N)=O)cc1OCc1cccnc1 [Compound 32, 3-(4-(ethylsulfonamido)-3-(194yridine-3-ylmethoxy)phenyl)-5-(pyrazin-2-ylamino)-1H-pyrazole-4-carboxamide] | – | < 0.01
N#Cc1cccc(Nc2[nH]nc(-c3ccc(NS(=O)(=O)CC(F)(F)F)cc3)c2C(N)=O)n1 [Compound 237, 5-[(6-cyanopyridin-2-yl)amino]-3-[4-(2,2,2-trifluoroethanesulfonamido)phenyl]-1H-pyrazole-4-carboxamide] | – | < 0.01
C[C@H](Oc1cc(-c2n[nH]c(Nc3cc(C(F)F)on3)c2C(N)=O)ccc1NS(=O)(=O)C(F)F)c1ccc(F)cc1 [Compound 314, (S)-5-((5-(difluoromethyl)isoxazol-3-yl)amino)-3-(4-((difluoromethyl)sulfonamido)-3-(1-(4-fluorophenyl)ethoxy)phenyl)-1H-pyrazole-4-carboxamide] | – | < 0.01
NC(=O)c1c(-c2ccc(NS(=O)(=O)CC(F)(F)F)c(OCc3ccc(F)cc3)c2)n[nH]c1Nc1ccnc(C(F)(F)F)n1 [Compound 186, 3-(3-((4-fluorobenzyl)oxy)-4-((2,2,2-trifluoroethyl)sulfonamido)phenyl)-5-((2-(trifluoromethyl)pyrimidin-4-yl)amino)-1H-pyrazole-4-carboxamide] | – | < 0.01
C[C@H](Oc1cc(-c2n[nH]c(Nc3cnccn3)c2C(N)=O)ccc1NS(=O)(=O)CC(F)(F)F)c1ccccn1 [Compound 267, 5-[(pyrazin-2-yl)amino]-3-{3-[(1S)-1-(pyridin-2-yl)ethoxy]-4-(2,2,2-trifluoroethanesulfonamido)phenyl]-1H-pyrazole-4-carboxamide] | – | < 0.01
CCS(=O)(=O)Nc1ccc(-c2n[nH]c(Nc3cnccn3)c2C(N)=O)cc1OCC1CCCCC1 [Compound 47, 3-(3-(cyclohexylmethoxy)-4-(ethylsulfonamido)pheny)-5-(pyrazin-2-ylamino)-1H-pyrazole-4-carboxamide] | – | < 0.01
C[C@H](Oc1cc(-c2n[nH]c(Nc3cccc(C(F)(F)F)n3)c2C(N)=O)ccc1NS(=O)(=O)C(F)F)c1ccc(F)cc1 [Compound 229, 3-[4-(difluoromethanesulfonamido)-3-[(1S)-1-(4-fluorophenyl)ethoxy]phenyl]-5-{[6-(trifluoromethyl)pyridin-2-yl]amino}-1H-pyrazole-4-carboxamide] | – | < 0.01
NC(=O)c1c(-c2ccc(NS(=O)(=O)CC(F)(F)F)cc2OCc2ccc(F)cc2)n[nH]c1Nc1cccc(C(F)(F)F)n1 [Compound 140, 3-(2-((4-fluorobenzyl)oxy)-4-((2,2,2-trifluoroethyl)sulfonamido)phenyl)-5-((6-(trifluoromethyl)pyridine-2-yl)amino)-1H-pyrazole-4-carboxamide] | – | < 0.01
CCS(=O)(=O)Nc1ccc(-c2n[nH]c(Nc3cccc(C(F)(F)F)n3)c2C(N)=O)cc1OCC1CCCC1 [Compound 10, 3-(3-(cyclopentylmethoxy)-4-(ethylsulfonamido)phenyl)-5-((6-(trifluoromethyl)pyridin-2-yl)amino)-1H-pyrazole-4-carboxamide] | – | 0.01 to 1
NC(=O)c1c(-c2ccc(NS(=O)(=O)c3ccccc3)cc2)n[nH]c1Nc1ccccn1 [Compound 133, 3-(4-(phenylsulfonamido)phenyl)-5-(pyridin-2-ylamino)-1H-pyrazole-4-carboxamide] | – | 1 to 30
CCS(=O)(=O)Nc1ccc(-c2n[nH]c(Nc3ccc(C(F)(F)F)cn3)c2C(N)=O)cc1 [Compound 93, 3-(4-(ethylsulfonamido)phenyl)-5-((5-(trifluoromethyl)pyridin-2-yl)amino)-1H-pyrazole-4-carboxamide] | – | < 0.01
